Experiments:
[1] = biological target: T1, human CK1δ (Cos 7 cells cotransfected with mouse Per3-GFP) (Homo sapiens, UniProt P48730); test: CK1 WCA HCS nuclear translocation assay (CK1δ); format: cell-based; conditions: inhibition of mPer3-GFP translocation to the nucleus, overnight exposure, read-out: CK1 δ WCA EC50
T1 construct: His tag of the vector pcDNA4/hisA (only the vector name is printed); expressed in transfected cells; host or cells: Cos 7 cells
Procedure: (§1) CK1 WCA HCS Nuclear Translocation Assay.
(§2) Cos 7 cells were maintained at 37° C. in 5% CO2 in Dulbecco's Modified Eagle Medium (Gibco 11995) supplemented with 10% fetal bovine serum. Log-phase cells were dislodged with 5 min treatment of TrypLE Express (Gibco 12605) and viable cell count was determined with Cedex cell counter. Cells were diluted in DMEM medium to a density of 1.5e5 viable cells/mL in ⅔ of the final volume of final transfected cell mix. Cells were cotransfected with two plasmid DNAs, mouse Per3-GFP (green fluorescent protein) in pd2EGFP-N1 vector and human CKI in pcDNA4/hisA vector (for CK1Epsilon at a ratio of 1:5 respectively; for CK1δ at a ratio of 1:11 respectively), using Lipofectamine 2000 reagent (Invitrogen) according to the manufacturer's recommendations. The transfection mix contained approximately 0.83 μg/mL of DNA and 6 μL/mL of Lipofectamine 2000, in a total of ⅓ of the final transfection volume in Opti-MEM I medium (Invitrogen). […]
(§3) Compounds were solubilized in 100% DMSO, diluted with Opti-MEM I to a 4× concentration before addition to plated cells. […] CKIδ dependent nuclear localization of the GFP-tagged mPer3 protein was quantitated using the Cellomics ArrayScan VTI system utilizing the Cytoplasm to Nucleus translocation bioapplication to calculate the Nuclear-Cytoplasmic Intensity difference. […]

Sequences of proteins named here, by UniProt entry; tags and fusion partners are left off. A change or cut given only in a name is not applied to a line headed by its entry.
UniProt P48730: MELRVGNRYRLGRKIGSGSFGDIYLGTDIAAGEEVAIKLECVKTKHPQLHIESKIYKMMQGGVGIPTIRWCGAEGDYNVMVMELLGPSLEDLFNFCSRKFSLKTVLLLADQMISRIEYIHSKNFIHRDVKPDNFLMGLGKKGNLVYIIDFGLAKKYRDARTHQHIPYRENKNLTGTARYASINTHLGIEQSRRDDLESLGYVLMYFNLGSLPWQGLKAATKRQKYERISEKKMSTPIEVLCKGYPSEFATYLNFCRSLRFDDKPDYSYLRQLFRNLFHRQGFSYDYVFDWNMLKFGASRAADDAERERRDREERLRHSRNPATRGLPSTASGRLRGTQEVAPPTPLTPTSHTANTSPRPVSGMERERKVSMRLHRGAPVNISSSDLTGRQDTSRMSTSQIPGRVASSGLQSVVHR
UniProt P49674: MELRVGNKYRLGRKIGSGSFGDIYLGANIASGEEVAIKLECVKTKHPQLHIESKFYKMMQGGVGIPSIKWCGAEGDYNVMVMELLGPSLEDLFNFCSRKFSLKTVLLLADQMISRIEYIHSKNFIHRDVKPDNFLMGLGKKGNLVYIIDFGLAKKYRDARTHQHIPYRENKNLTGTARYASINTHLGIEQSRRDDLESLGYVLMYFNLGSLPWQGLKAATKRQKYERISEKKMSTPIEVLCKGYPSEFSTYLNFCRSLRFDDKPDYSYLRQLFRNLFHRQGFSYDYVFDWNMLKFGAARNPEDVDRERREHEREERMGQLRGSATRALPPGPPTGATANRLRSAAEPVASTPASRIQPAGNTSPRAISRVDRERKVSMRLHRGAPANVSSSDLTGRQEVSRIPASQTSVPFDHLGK

CKI ε wild type = CKI ε wild type (Homo sapiens, UniProt P49674); test: CK1ε kinase assay (Kinase-Glo); format: biochemical; conditions: 10 μM ATP, 2.5 nM CKI ε, 70 min at 25° C.; read-out: CK1 ε:IC50
Procedure: (§4) The CK1ε kinase assay was performed in a 40-μl final volume in buffer containing 50 mM Tris, pH 7.5, 10 mM MgCl2, 1 mM dithiothreitol, 100 μg/mL BSA with 10 μM ATP, 2.5 nM CKI ε wild type, and 42 μM peptide substrate PLSRTLpSVASLPGL (Flotow et al., 1990) in the presence of 1 μl of CKI ε inhibitor or 4% DMSO. The reaction was incubated for 70 min at 25° C.; detection was carried out as described for the Kinase-Glo Assay (Promega). Luminescent output was measured on the Perkin Elmer Envision plate reader (PerkinElmer, Waltham, Mass.).

CKIδ wild type = CKIδ wild type (Homo sapiens, UniProt P48730); test: CK1δ kinase assay (Kinase-Glo); format: biochemical; conditions: 10 μM ATP, 2 nM CKIδ, 85 min at 25° C.; read-out: CK1 δ IC50
Procedure: as §4, with “CK1δ” for “CK1ε”, “40 μl” for “40-μl”, “2” for “2.5”, “CKIδ” for “CKI ε”, “85” for “70”

[2] = biological target: T2, human CK1Epsilon (Cos 7 cells cotransfected with mouse Per3-GFP) (Homo sapiens, UniProt P49674); test: CK1 WCA HCS nuclear translocation assay (CK1ε); format: cell-based; conditions: inhibition of mPer3-GFP translocation to the nucleus, overnight exposure, read-out: CK1 ε WCA EC50
T2 construct: His tag of the vector pcDNA4/hisA (only the vector name is printed); expressed in transfected cells; host or cells: Cos 7 cells
Procedure: as §1, §2, §3

EC50 [1]: 52.6 nM | IC50 (CKI ε wild type): 35.5 nM | IC50 (CKIδ wild type): 7.9 nM | EC50 [2]: 313 nM
SMILES: CN1Cc2nccc(-c3cn(C)nc3-c3ccc(F)cc3)c2C1=O [Example 2, 4-[3-(4-fluorophenyl)-1-methyl-1H-pyrazol-4-yl]-6-methyl-6,7-dihydro-5H-pyrrolo[3,4-b]pyridin-5-one]

From patent US8536164B2, “Fused pyridine compounds as casein kinase inhibitors” (Pfizer Inc., priority 2010, dated 2013)
